Data on 19 molecules can be found in ChEMBL document CHEMBL1125782, “Structure/activity studies related to 2-(3,4-dichlorophenyl)-N-methyl-N-[2-(1-pyrrolidinyl)-1-substituted- ethyl]acetamides: a novel series of potent and selective kappa-opioid agonists” (1991).

For this experiment, the system named is Mus musculus. Briefly: Antinociceptive activity in acetic acid induced abdominal constriction assay after sc administration and abolished by naloxone administered at 3 mg/kg sc in mice. The note with it: route subcutaneous, Abdomen.
What is called ED50 is the dose at which the effect has come halfway, by size or by number of responders. A high value points to a need for a large dose. `CC(C)[C@@H](CN1CCCC1)N(C)C(=O)CSc1ccccc1`: it took a dose of 0.27 mg/kg to reach the 50% effect level (ED50).
In the case of `CCN(C(=O)Cc1ccccc1)[C@H](CN1CCCC1)C(C)C` it was 0.32 mg/kg; in that of `CC(C)[C@@H](CN1CCCC1)N(C)C(=O)Cc1ccccc1`, 10 mg/kg.
`CC(C)[C@@H](CN1CCCC1)N(C)C(=O)Cc1ccc(F)c(F)c1` had a median effective dose (ED50) of 0.23 mg/kg.
`CC(C)[C@@H](CN1CCCC1)N(C)C(=O)COc1ccccc1` gave an ED50 of 0.13 mg/kg.
Take `CC(C)[C@@H](CN(C)C)N(C)C(=O)Cc1ccc(Cl)c(Cl)c1`: it took a dose of 0.16 mg/kg to reach the 50% effect level (ED50).
For `CC(C)[C@@H](CN1CCCC1)N(C)C(=O)Cc1ccc(Cl)cc1` the value was 0.09 mg/kg; for `COc1ccc(CC(=O)N(C)[C@H](CN2CCCC2)C(C)C)cc1`, 3.3 mg/kg.
For `CC(C)[C@@H](CN(C)C(C)C)N(C)C(=O)Cc1ccc(Cl)c(Cl)c1` the value was 0.065 mg/kg; for `CCCN(C(=O)Cc1ccccc1)[C@H](CN1CCCC1)C(C)C`, greater than 10 mg/kg; for `CC(C)[C@@H](CN(C)Cc1ccccc1)N(C)C(=O)Cc1ccc(Cl)c(Cl)c1`, greater than 10 mg/kg.
Consider `CCCN(C)C[C@H](C(C)C)N(C)C(=O)Cc1ccc(Cl)c(Cl)c1`, for which it took a dose of 0.58 mg/kg to reach the 50% effect level (ED50).
For `CC(C)[C@@H](CN1CCCC1)N(C)C(=O)Cc1cccc(Cl)c1` the value was 0.33 mg/kg.
In the case of `CNC[C@H](C(C)C)N(C)C(=O)Cc1ccc(Cl)c(Cl)c1`, the ED50 was greater than 10 mg/kg.
Turning to `CC(C)[C@@H](CN1CCCC1)NC(=O)Cc1ccccc1`, the ED50 amounted to 1.3 mg/kg.
For `CC(C)[C@@H](CN1CCCC1)N(C)C(=O)Cc1ccc(C#N)cc1` the value was 0.84 mg/kg; for `CCN(CC)C[C@H](C(C)C)N(C)C(=O)Cc1ccc(Cl)c(Cl)c1`, 1.52 mg/kg; for `CC(C)[C@@H](CN1CCCC1)N(C)C(=O)Cc1ccc(C(F)(F)F)cc1`, 0.07 mg/kg.
In the case of `CC(C)[C@@H](CN1CCCC1)N(C)C(=O)Cc1ccc([N+](=O)[O-])cc1` it was 0.3 mg/kg.
